Earlier results as cited in patent US6569404B1, “Phase shift colloids as ultrasound contrast agents” (priority 1993, dated 2003).

Details: Chemical List of low boiling liquids, Example 45; cited from earlier work

Carbonyl fluoride
Boiling Point: −83.0 degrees Celcius
